These are literature values, as cited in patent US8206983B2, “In vitro methods for the induction and maintenance of plant cell lines as single suspension cells with intact cell walls” (Dow AgroSciences, LLC., priority 2006, dated 2012).

The test system of this series is soybean suspension cells. The conditions noted are these: cited from earlier work.

As to `COc1cc2c(c(OC)c1OC)-c1ccc(OC)c(=O)cc1[C@@H](NC(C)=O)CC2` [Colchicine], the “concentration for the production of chromosomal polyploidy” value was 5 to 20 mM.
